Patent publication US20180000778A1, “SMALL MOLECULE ANTAGONISTS OF DUSP5 AND METHODS OF USE” (THE MEDICAL COLLEGE OF WISCONSIN, INC., priority 2015, published 2018)

Molecular target: T1, DUSP5 (PD)-WT (Homo sapiens, UniProt Q16690)
T1 construct: hexa-histidine (N); made in house; host or cells: E. coli BL21(DE3)
T1 sequence (Q16690 178-319): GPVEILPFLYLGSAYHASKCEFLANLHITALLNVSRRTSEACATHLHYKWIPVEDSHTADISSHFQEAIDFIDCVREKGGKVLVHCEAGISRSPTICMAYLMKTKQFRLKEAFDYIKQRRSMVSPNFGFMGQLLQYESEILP
Experiment: Phosphatase inhibition profiles (Table 4), initial rates
Assay type: biochemical
Conditions: read-out: IC50 DUSP5 (PD)-WT (mean ± SE)

IC50: > 1 mM
Structure (SMILES): Nc1cccc2c(O)cc(S(=O)(=O)O)cc12 [RR535]
